These results are taken from PubChem BioAssay (Tox21).

Sequences of proteins named here, by UniProt entry; tags and fusion partners are left off.
UniProt P08684, whole entry, looked up: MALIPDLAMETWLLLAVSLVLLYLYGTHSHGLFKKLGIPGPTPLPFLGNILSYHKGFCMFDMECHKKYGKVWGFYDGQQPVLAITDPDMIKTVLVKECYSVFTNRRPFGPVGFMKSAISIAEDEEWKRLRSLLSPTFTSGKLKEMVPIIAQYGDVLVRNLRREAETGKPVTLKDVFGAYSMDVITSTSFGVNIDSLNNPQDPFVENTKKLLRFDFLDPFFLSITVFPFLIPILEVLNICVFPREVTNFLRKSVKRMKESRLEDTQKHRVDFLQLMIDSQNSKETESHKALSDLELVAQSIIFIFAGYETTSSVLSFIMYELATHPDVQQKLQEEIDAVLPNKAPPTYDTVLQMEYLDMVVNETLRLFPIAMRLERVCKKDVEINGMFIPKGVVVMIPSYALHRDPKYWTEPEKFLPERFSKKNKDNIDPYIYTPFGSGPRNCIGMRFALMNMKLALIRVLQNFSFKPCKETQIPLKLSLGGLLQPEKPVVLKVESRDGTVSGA

The list shows a part of the results, in another mix than the full data. Records with an inconclusive call do not appear. Activity calls are given as the source filed them. Calls follow the shape of the dose curve; as a rule, active = well fitted inhibition curve with a large enough effect in the repeat runs; inconclusive = weak or mixed curves; inactive = no such curve, though single readings can be large or run the other way.
% is scaled to controls: 0 for no effect and ±100 for the full control effect; potency is read from the fitted curve at half-maximal effect.

This assay concerns the target Cytochrome P450 3A4 (Homo sapiens) (UniProt P08684). As to the kind of experiment: Cytochrome P450 Family 3 Subfamily A Member 4 (CYP3A4) small molecule antagonists: luciferase reporter qHTS assay (AID 1671201). Also: nearly all actives have a fitted effect of over 50% in size. Particulars: P450-Glo CYP3A4 enzyme, luciferin luminescence, 1 h; series mostly up to 115 µM; activity change, negative = inhibition: at the top concentration. The source says: National Center for Advancing Translational Sciences [NCATS]
U.S. Environmental Protection Agency [EPA]
National Institutes of Environmental Health Sciences [NIEHS]
National Toxicology Program [NTP]
U.S. Food and Drug Administration [FDA]
Cytochrome P450 (CYP) enzymes are membrane-bound hemeproteins that play a key role in metabolism of drugs and xenobiotics. Evaluation of the effect of chemicals on CYP isozymes is useful to minimize the adverse drug reactions and toxicities in drug development process. Tox21 chemicals were tested for their effect on CYP enzyme activities by using P450-Glo (TM) screening systems (Promega Corporation, Madison, WI). These systems provide a luminescent method containing proluciferin substrates and are converted to luciferin products by CYP isozymes. The luciferin products formed are detected with a luciferin detection reagent, and the amount of light produced is proportional to CYP activity. P450-Glo (TM) CYP3A4 screening system (Catalog. No. V9910) was used to detect the compounds that interfere in CYP3A4 activity. The positive control compound used for CYP3A4 assay is ketoconazole (Sigma-Aldrich, St. Louis, MO).
Tox21 Assay Protocol Summary:
Two ul of enzyme-substrate mix was dispensed into medium binding white/solid 1536-well plates (Greiner Bio-One North America Inc., Monroe, NC) using a BioRaptr Flying Reagent Dispenser (FRD, Beckman Coulter, Brea, CA). Compounds dissolved in DMSO and positive control (ketoconazole) were transferred to the assay plates at 23 nl using a Pintool station (Wako, San Diego, CA). The assay plates were incubated at room temperature for 10 min. Then 2 ul of NADPH regeneration solution was added to each well of the assay plates using an FRD and incubated at room temperature for 1 h. The reaction was stopped by adding 4 ul of detection reagent using an FRD and after 20 min incubation at room temperature the luminescence signal was measured using a ViewLux plate reader (Perkin Elmer, Shelton, CT). Data were expressed as relative luminescence units.
(In a reporter assay the amount or activity of a reporter protein is the signal.)
Turning to `O=[p+]1oc2ccccc2c2ccccc21` (configuration not stated), the “activity change, negative = inhibition” value was inactive: 6.5%.

For the compound `CCCCO[P+](=O)OCCCC`, the Potency entry was “inactive”.

As to `CC(C)CCCCCCCOP(OCCCCCCCC(C)C)Oc1ccccc1`, the Potency is active: 17.8 µM.

With `O=[P+](Oc1ccccc1)Oc1ccccc1`, the “activity change, negative = inhibition” value was inactive: 2.38%.

Take `COC(=O)Cl`: the “activity change, negative = inhibition” value is inactive: 2.62%.

Consider `O=C(Cl)Oc1ccccc1`, for which the “activity change, negative = inhibition” value was inactive: -7.32%.

As for `Cc1cc([N+](=O)[O-])c(O)c([N+](=O)[O-])c1`, the “activity change, negative = inhibition” value was inactive: 54.9%.

Turning to `ClP(Cl)c1ccccc1`, the “activity change, negative = inhibition” value is inactive: 5.78%.

As for `COP(=S)(Cl)OC`, the “activity change, negative = inhibition” value is inactive: 15%.

`CCOP(=S)(CC)Sc1ccccc1` (configuration not stated): the Potency was active: 1.58 µM.

In the case of `O=P(Cl)(Cl)c1ccccc1`, the “activity change, negative = inhibition” value was inactive: 6.28%.

Take `O=P(Cl)(Oc1ccccc1)Oc1ccccc1`: the “activity change, negative = inhibition” value is inactive: 69.1%.

`CCNC(C)Cc1ccc2c(c1)OCO2` (configuration not stated): the “activity change, negative = inhibition” value is inactive: -0.559%.

With `CN(C(=O)Cc1ccccc1)[C@H]1CC[C@@]2(CCCO2)C[C@@H]1N1CCCC1`, the Potency was active: 12.3 µM.

Take `CCC(C)(OOC(C)(C)C)OOC(C)(C)C`: the activity change, negative = inhibition is inactive: -9.74% [at 23.6 µM].

For `Cc1cc([N+](=O)[O-])cc([N+](=O)[O-])c1O`, the Potency result is “inactive”.

For `CCOC(=O)Cl`, the “activity change, negative = inhibition” value is inactive: 7.59%.

With `CCCCC(CC)CO[P+](=O)OCC(CC)CCCC` (configuration not stated), the “activity change, negative = inhibition” value was inactive: -14.7%.

`O=[As]c1ccccc1` (configuration not stated): the “activity change, negative = inhibition” value was inactive: -21.1%.

On to `CN(C(=O)Cc1ccc(Cl)c(Cl)c1)[C@H]1CC[C@@]2(CCCO2)C[C@@H]1N1CCCC1`, for which the Potency was active: 0.776 µM.

As for `CN(C(=O)Cc1cccc2occc12)[C@H]1CC[C@@]2(CCCO2)C[C@@H]1N1CCCC1`, the Potency was active: 22.3 µM.

With `O=[N+]([O-])c1ccc([N+](=O)[O-])cc1`, the Potency is active: 25.2 µM.
